Patent US20050282889A1, “Intracorporeal medicaments for photodynamic treatment of disease” (priority 1996, published 2005)

Experiment: Absorbance properties of halogenated xanthenes (λmax, α)
Type: physicochemical
Description: Selected chemical and physical properties (such as chemical constituents at positions X, Y, and Z and functionalities R^1 and R^2, along with molecular weight and photochemical characteristics) of representative halogenated xanthenes are summarized in attached Table 1. Certain general properties of this class of agents are discussed in further detail in U.S. Ser. No. 09/130,041, filed on Aug. 6, 1998, U.S. Ser. No. 09/184,388, filed on Nov. 2, 1998, and U.S. Ser. No. 09/216,787, filed on Dec. 21, 1998, which are herein incorporated by reference in their entirety. […]
Further, as evidenced by the data shown in Table 1 (infra) and in FIG. 2, halogenated xanthenes share common spectroscopic properties, including a high single-photon cross-section extending from approximately 500 nm to 600 nm. […] Such excitation methods provide additional utility in the activation of medicaments formulated from these agents, for example when it is desirable to increase the depth of photoactivation to positions substantially beyond that readily accessible using visible light excitation methods.

## Rose Bengal Lithium Salt
  λmax (nm) EtOH: 559 nm
